{"source": "patent US5736529A", "about": "“Use of NAD-related compounds in the treatment of neural trauma to inhibit neurodegeneration” (priority 1996, dated 1998)", "key": {"[1]": {"tested_on": "DNA in midbrain and striatum of C57BL/6 mice", "assay": "Fluorimetric assay of DNA fragmentation in MPTP treated mice (Table 7)", "assay_type": "in vivo, mouse (C57BL/6)", "settings": "for DNA damage, STRIATUM: MPTP 25 mg/kg ip twice, mean ± S.D.", "excerpt": "A fifth group was the control. Brains were removed and the midbrain and striatum isolated."}, "[2]": {"tested_on": "dopaminergic neurons in the midbrain", "assay": "Apoptosis in MPTP treated mice (In Situ Apoptosis Detection Kit, tyrosine hydroxylase staining)", "assay_type": "in vivo, mouse (C57BL/6)", "settings": "MPTP treated brains"}}, "data": [{"molecule": "CN1CC=C(c2ccccc2)CC1", "note": "[MPTP, 1-methyl-4-phenyl-1,2,3,6-tetrahydropyridine]", "values": [{"measurement": "DNA fragmentation in the striatum", "setting": "[1]; 25 mg/kg MPTP twice, 48 hours", "value": "not in the striatum"}, {"measurement": "DNA damage, STRIATUM", "setting": "[1]; 2 hours", "value": "0.9256 ± 0.0593 per gram of tissue"}, {"measurement": "DNA damage, STRIATUM", "setting": "[1]; 48 hours", "value": "1.2433 ± 0.2420 per gram of tissue"}, {"measurement": "tyrosine hydroxylase stained cells", "setting": "[2]", "value": "condensed cells with fragmented nuclei can be clearly observed"}]}]}
